We go through two compounds from patent US9776992B2, “1-oxo-1,2-dihydroisoquinolin-7-yl-(5-substituted-thiophen-2-yl)-sulfonamide compounds, formulations containing those compounds, and their use as AICARFT inhibitors in the treatment of cancers” (Eli Lilly and Company, priority 2014, dated 2017).

The chains behind the UniProt entries cited, without tags or fusion partners. Where a name states a change or a piece, a line headed by the entry shows the natural chain unless it says otherwise.
UniProt P31939: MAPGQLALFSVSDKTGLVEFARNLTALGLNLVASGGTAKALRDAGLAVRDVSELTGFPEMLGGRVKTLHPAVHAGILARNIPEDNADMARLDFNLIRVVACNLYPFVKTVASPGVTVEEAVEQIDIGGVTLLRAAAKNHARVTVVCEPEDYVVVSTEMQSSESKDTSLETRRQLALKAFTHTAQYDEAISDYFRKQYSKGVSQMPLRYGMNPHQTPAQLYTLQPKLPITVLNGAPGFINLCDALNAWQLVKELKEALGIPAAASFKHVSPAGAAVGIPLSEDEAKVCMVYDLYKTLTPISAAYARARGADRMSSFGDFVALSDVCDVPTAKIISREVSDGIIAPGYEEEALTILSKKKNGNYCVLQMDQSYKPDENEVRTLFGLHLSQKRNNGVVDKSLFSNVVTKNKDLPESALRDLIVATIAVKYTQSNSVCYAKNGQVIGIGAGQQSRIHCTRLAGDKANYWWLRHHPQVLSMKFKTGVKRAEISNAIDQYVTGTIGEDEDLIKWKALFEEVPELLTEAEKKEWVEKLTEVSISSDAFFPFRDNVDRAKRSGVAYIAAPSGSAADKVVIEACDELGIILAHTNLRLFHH

Assay [1] addresses T1, AICARFT (Homo sapiens, UniProt P31939). Description: AICARFT enzyme assay (LC-MS of IMP and ZMP). The assay is classed as biochemical. The following applies: Mean ± SEM; 25 μM ZMP, 100 μM 10-F-THFA, 3 nM ATIC enzyme, 1 hour at room temperature. More on the design: made in house; host or cells: E. coli BL21(DE3). The method, then:
Human AICARFT (NCBI accession number: NM_004044.6) cDNA is purchased from Openbiosystem Co. (Cat# MHS1011-62310, Clone ID: 4300570, accession: BC008879). The nucleotide sequence encoding full-length human AICARFT is inserted into pET21d (Novagen) vector with an N-terminal HIS tag. Bacterial BL21(DE3) (Novagen) is used as an expression host, and the induction of protein expression is carried out in 2×TY media with 1 mM IPTG at 18° C. overnight. Cell pellets are stored at −80° C. for subsequent protein purification. Protein purification is conducted at 4° C. […] Fractions containing HIS-AICARFT are pooled and protein concentration determined by the Bradford assay using BSA as standard. […]
One of the substrates of the enzyme reaction, 10-formyltetrahydrofolate (10-F-THFA), has limited chemical stability and is therefore synthesized on the same day that the ATIC enzyme assay is performed. […] The color changes from clear to yellow visually, and the complete conversion of folinic acid to 5,10-M-THFA is monitored by spectral analysis using a quartz cuvette. […] The color changes from yellow to clear visually, and the conversion of 5,10-M-THFA to 10-F-THFA is monitored by spectral analysis using a quartz cuvette. […]

Assay [2] addresses T1, AICARFT. Put plainly: MS detection of ZMP in low folate media cultured NCI-H460 cells. The assay is classed as cell-based. More on the design: endogenous in cells; host or cells: NCI-H460. The following applies: Mean ± SEM, ZMP concentration by LC-MS, 16 hours. The method, then:
Grow NCI-H460 cells in complete high folate RPMI media (ATCC #30-2001) until cellular confluence reaches ˜80%. Wash cells with PBS, trypsinize, resuspend cells in complete low folate RPMI media (Gibco #27016-021) and perform a cell count. Transfer 1.25×10^6 cells to a T225 flask containing complete low folate RPMI media (40 mL). Grow for seven days. Split cells again with complete low folate media if confluence surpasses 80%. Wash cells with PBS, trypsinize, resuspend cells in complete low folate RPMI media, and perform a cell count. Aliquot 10×10^6 cells in complete low folate media (1 mL)+5% DMSO per cryovial. Use a cell freezing apparatus to freeze cells in a slow and controlled manner in a −80° C. freezer. The next day, transfer cells to liquid nitrogen for long term storage. Thaw frozen cells from cryovial in 37° C. water bath, wash cells once with low folate assay medium: folate free RPMI 1640 medium (Gibco, #27016-021), Glucose (Sigma, #G5767), Hepes (Hyclone, #SH30237.01), Na Pyruvate (Hyclone, #Sh30239.01), 10% FBS (Hyclone, #SH30070.03). […]
The cellular effects of AICARFT inhibition on the concentrations of ZMP, 2′-deoxyuridine 5′-monophosphate (dUMP) and N^1-(β-D-Ribofuranosyl)-5-aminoimidazole-4-carboxamide (AICAr) are determined by LC-MS. […]

`O=c1[nH]ccc2cc(F)c(NS(=O)(=O)c3ccc(N4CC[C@@H](O)C4)s3)cc12` [Example 1, N-(6-Fluoro-1-oxo-1,2-dihydroisoquinolin-7-yl)-5-[(3R)-3-hydroxypyrrolidin-1-yl]thiophene-2-sulfonamide]: the IC50 is 15 nM in assay [1] and 22 nM in assay [2].

As to `O=c1[nH]ccc2cc(F)c(NS(=O)(=O)c3ccc(N4CC[C@H](O)C4)s3)cc12` [Example 8, N-(6-Fluoro-1-oxo-1,2-dihydroisoquinolin-7-yl)-5-[(3S)-3-hydroxypyrrolidin-1-yl]thiophene-2-sulfonamide], the results for the IC50 in assay [1] and in assay [2] were 13.8 nM and 25 nM, respectively.
